From ChEMBL document CHEMBL2062428

Sequences of proteins named here, by UniProt entry; tags and fusion partners are left off.
UniProt P23219, whole entry: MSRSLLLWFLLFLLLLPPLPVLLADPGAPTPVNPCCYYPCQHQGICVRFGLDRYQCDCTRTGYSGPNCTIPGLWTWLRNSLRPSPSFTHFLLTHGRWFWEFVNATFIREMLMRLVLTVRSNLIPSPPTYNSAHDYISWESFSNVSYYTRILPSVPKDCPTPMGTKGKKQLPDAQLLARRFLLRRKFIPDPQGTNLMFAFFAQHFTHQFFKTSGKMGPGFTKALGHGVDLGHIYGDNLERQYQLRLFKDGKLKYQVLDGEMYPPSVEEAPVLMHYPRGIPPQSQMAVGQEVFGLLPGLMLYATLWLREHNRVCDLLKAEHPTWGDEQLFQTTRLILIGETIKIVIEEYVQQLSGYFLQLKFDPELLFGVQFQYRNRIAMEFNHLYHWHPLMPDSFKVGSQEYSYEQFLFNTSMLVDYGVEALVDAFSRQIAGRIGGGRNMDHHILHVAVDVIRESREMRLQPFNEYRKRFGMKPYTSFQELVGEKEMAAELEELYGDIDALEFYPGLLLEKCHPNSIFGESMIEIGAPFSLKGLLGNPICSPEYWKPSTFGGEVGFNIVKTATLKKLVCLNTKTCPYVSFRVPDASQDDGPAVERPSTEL

Assays:
[1] = Selectivity ratio of IC50 for mouse COX2 to IC50 for ovine COX1
[2] = target: Prostaglandin G/H synthase 1 (Homo sapiens, UniProt P23219); format: cell-based, OVCAR-3

Ratio IC50 [1] | IC50 [2] | SMILES
30 | 0.495 µM | O=C(CC1=C/C(=C\c2ccc(-c3ccccc3)cc2)c2ccc(F)cc21)NS(=O)(=O)C(F)(F)F
 | 0.3 µM | O=C(O)CC1=C/C(=C\c2ccc(-c3ccccc3)cc2)c2ccc(F)cc21
